Data published in US10870658B2, “Aldose reductase inhibitors and methods of use thereof” (The Trustees of Columbia University in the City of New York, priority 2016, dated 2020).

Molecular target: Aldose Reductase (Homo sapiens, UniProt P15121)
Assay: Aldose reductase enzymatic inhibition (micro plate assay, D-glyceraldehyde and NADPH, absorbance at 340 nm)
Assay type: biochemical
Conditions: D-glyceraldehyde and NADPH as substrate; 0.1 nm to 10 uM
Protocol: Aldose Reductase Enzymatic Inhibition:
All compounds and Zopolrestat were tested individually in a micro plate assay for AR inhibition using D-glyceraldehyde and NADPH as substrate and the absorbance changes at 340 nm was monitored. % Inhibition was calculated for ARIs at concentration ranging 0.1 nm to 10 uM.

## O=C(O)Cc1nn(Cc2nc3cc(C(F)(F)F)ccc3s2)c(=O)c2cscc12 [Compound XII, 2-(4-oxo-3-((5-(trifluoromethyl)benzo[d]thiazol-2-yl)methyl)-3,4-dihydrothieno[3,4-d]pyridazin-1-yl)acetic acid]
  IC50: 0.1 nM
